Experimental data from article PMC12304827 (British Journal of Clinical Pharmacology, 2025).
Where “and” joins values, the source holds several entries; their conditions need not be identical. Equal entries are not always repeated.

Key:
[1] = OC study 2: EE and LN PK with/without ritlecitinib 50 mg QD
[2] = OC study 1: EE and LN PK with/without ritlecitinib 200 mg QD
[3] = OC with ritlecitinib 50 mg QD × 13 days vs OC alone
[4] = OC with ritlecitinib 200 mg QD × 11 days vs OC alone

AUClast, ratio (test/reference) of adjusted geometric means (90% CI) [1, 3]: 87.9% and 87.9 (82.7–93.4) %
Cmax, ratio (test/reference) of adjusted geometric means (90% CI) [1, 3]: 80.1% and 80.1 (73.1–87.8) %
Effect of ritlecitinib 50 mg QD on PK of OC steroid (in words) ([1]; listed as levonorgestrel): did not affect
AUClast, ratio (test/reference) of adjusted geometric means (90% CI) [2, 4]: 112.7% and 112.7 (104.2–122.0) %
Cmax, ratio (test/reference) of adjusted geometric means (90% CI) [2, 4]: 103.1% and 103.1 (97.3–109.2) %
Effect of ritlecitinib 200 mg QD on PK of OC steroid (in words) [2]: not affected
Effect of ritlecitinib 200 mg QD on PK of OC steroid (in words) ([2]; listed as levonorgestrel): did not affect
Compound: C#C[C@]1(O)CC[C@H]2[C@@H]3CCC4=CC(=O)CC[C@@H]4[C@H]3CC[C@@]21CC [LN, levonorgestrel]
Effect of ritlecitinib 50 mg QD on PK of OC steroid (in words) [1]: did not produce a clinically meaningful change
